Data taken from patent US20250313535A1, “ALPHA 4 BETA 7 INTEGRIN MODULATORS AND USES THEREOF” (DICE MOLECULES SV, INC., priority 2022, published 2025).

Amino acid sequences for entries named in this document (tags omitted). Residues count along the entry.
UniProt P05556, 21-798 limits assumed: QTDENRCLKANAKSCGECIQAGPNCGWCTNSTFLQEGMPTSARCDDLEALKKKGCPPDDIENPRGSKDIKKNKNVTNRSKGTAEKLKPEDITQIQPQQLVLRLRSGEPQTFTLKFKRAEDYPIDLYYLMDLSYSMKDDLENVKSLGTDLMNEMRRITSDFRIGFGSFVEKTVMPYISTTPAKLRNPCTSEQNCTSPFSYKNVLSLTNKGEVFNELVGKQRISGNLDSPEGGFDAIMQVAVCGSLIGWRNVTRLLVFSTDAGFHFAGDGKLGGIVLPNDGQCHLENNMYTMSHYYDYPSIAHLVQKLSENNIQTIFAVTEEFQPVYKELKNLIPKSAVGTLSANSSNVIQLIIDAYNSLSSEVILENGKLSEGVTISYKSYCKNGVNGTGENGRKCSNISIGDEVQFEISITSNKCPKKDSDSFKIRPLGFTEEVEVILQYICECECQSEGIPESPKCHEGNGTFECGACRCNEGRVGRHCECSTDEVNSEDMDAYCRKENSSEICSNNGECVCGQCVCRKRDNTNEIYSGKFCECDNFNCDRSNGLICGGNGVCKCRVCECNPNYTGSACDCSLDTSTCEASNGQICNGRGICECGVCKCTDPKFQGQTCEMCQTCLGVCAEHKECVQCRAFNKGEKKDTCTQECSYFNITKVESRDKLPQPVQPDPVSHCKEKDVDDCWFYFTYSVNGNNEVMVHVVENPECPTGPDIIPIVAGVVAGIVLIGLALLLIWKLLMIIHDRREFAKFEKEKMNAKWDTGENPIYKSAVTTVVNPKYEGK
UniProt P13612, 34-1032 limits assumed: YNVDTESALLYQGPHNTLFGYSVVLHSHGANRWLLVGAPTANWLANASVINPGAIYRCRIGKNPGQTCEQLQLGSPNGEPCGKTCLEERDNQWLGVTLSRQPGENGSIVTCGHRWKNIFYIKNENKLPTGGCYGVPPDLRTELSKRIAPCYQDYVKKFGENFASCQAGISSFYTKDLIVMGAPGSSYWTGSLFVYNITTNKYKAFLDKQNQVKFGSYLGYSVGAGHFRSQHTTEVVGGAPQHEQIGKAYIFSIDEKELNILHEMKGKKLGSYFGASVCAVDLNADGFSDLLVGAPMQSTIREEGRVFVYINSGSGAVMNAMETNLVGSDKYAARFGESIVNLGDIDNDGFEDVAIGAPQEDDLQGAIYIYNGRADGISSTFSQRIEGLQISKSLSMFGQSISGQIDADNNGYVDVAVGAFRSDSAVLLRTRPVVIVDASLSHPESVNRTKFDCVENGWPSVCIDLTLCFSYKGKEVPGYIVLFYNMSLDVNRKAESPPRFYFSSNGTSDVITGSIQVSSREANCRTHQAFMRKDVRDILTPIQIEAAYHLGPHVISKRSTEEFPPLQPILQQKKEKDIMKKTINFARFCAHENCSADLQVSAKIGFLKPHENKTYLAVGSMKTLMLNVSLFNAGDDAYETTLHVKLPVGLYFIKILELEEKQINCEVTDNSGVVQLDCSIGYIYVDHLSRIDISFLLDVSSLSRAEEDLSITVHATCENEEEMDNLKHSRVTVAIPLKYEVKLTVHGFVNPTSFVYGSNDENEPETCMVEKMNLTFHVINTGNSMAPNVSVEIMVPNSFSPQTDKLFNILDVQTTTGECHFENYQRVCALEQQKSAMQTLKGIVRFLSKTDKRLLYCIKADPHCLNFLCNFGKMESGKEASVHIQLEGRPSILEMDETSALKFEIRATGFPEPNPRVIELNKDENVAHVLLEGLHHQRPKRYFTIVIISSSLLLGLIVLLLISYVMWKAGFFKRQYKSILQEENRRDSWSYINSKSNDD
UniProt P26010, 20-798 limits assumed: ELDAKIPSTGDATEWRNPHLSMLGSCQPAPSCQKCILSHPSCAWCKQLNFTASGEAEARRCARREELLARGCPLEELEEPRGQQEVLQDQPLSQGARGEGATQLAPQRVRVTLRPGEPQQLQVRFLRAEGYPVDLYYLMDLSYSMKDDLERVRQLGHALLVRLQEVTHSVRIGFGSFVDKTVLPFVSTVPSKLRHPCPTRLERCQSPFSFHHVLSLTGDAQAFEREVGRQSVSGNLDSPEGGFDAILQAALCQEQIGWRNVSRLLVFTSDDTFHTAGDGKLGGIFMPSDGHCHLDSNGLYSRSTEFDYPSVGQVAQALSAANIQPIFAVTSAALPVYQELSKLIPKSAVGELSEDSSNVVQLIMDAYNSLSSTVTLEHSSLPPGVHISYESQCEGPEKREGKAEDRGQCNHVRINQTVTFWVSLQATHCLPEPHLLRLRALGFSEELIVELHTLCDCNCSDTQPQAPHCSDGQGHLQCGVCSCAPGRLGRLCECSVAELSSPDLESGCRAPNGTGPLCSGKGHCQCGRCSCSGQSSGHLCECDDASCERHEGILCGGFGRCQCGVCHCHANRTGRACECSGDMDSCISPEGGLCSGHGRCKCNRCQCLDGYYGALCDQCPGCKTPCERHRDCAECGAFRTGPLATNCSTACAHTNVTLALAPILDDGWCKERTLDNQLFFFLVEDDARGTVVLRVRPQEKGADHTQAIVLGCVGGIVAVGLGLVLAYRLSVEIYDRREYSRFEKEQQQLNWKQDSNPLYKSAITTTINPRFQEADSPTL

Assays:
α4β1 integrin [1] = target: T1, α4β1 integrin (Homo sapiens (Human), UniProt P05556+P13612); assay: Integrin Adhesion Assay: Protocol 5 (VCAM-coated plate, RPMI-8866 cells with stable LOF mutation of the ITGB7 gene)
α4β7 integrin [2] = target: T2, α4β7 integrin (Homo sapiens (Human), UniProt P13612+P26010); assay: Integrin Adhesion Assay: Protocol 4 (MAdCAM-coated plate, RPMI-8866 cells with stable LOF mutation of the ITGB1 gene)
α4β7 integrin [3] = target: T2, α4β7 integrin; assay: Integrin Adhesion Assay: Protocol 1 (MAdCAM-coated plate, RPMI-8866 cells, CellTiter GLO readout); conditions: read-out: Mean IC50 α4β7
α4β1 integrin [4] = target: T1, α4β1 integrin; assay: Integrin Adhesion Assay: Protocol 2 (VCAM-coated plate, Jurkat cells, CellTiter GLO readout); conditions: read-out: Mean IC50 α4β1, determined by at least one of the assays described (protocol not specified)
[5] = read-out: Mean IC50 α4β1 KO, Protocol 5, RPMI-8866 cells with LOF mutation of ITGB7, VCAM
[6] = read-out: Mean IC50 α4β7 KO, Protocol 4, RPMI-8866 cells with LOF mutation of ITGB1, MAdCAM

| SMILES | IC50 (α4β1 integrin [1]; [5]) | IC50 (α4β7 integrin [2]; [6]) | further results |
| --- | --- | --- | --- |
| COc1cc2c(c(OC)c1-c1cccc3c(C[C@H](NC(=O)C4(C(F)(F)F)CCN(CC(F)(F)F)CC4)C(=O)O)cccc13)CN(C(C)C)CC2 | 100 to 1000 nM | < 10 nM | – |
| Cn1c(=O)c(-c2cccc3c(C[C@H](NC(=O)c4c(F)cccc4F)C(=O)O)cccc23)c(C(F)(F)F)c2cc(CCN)ccc21 | 100 to 1000 nM | – | – |
| COc1c(CN2CCCCC2)ccnc1-c1cccc2c(C[C@H](NC(=O)C3(C(F)(F)F)CCN(CC(F)(F)F)CC3)C(=O)O)cccc12 | > 1000 nM | 10 to 100 nM | – |
| COc1cc(CN(C)C)cc(OC)c1-c1cccc2c(C[C@H](NC(=O)c3c(C)cccc3F)C(=O)O)cccc12 | – | – | IC50 (α4β1 integrin [1]; read-out: Mean IC50 α4β1 KO^b, RPMI-8866 cells with stable LOF mutation of the ITGB7 gene, tested form: HCl): > 1000 nM; IC50 (α4β7 integrin [2]; read-out: Mean IC50 α4β7 KO^a, RPMI-8866 cells with stable LOF mutation of the ITGB1 gene, tested form: HCl): < 10 nM |
| CN(C)c1ccc2c(C(F)(F)F)c(-c3cccc4c(C[C@H](NC(=O)c5c(F)cc(N6CCOC[C@@H]6C(F)(F)F)cc5F)C(=O)O)cccc34)c(=O)n(C)c2c1 | – | 100 to 1000 nM | IC50 (α4β7 integrin [3]; protocol not given): 100 to 1000 nM |
| Cn1ccc(=O)n(-c2cccc3c(C[C@H](NC(=O)c4c(F)cc5nc(CC(F)(F)F)[nH]c5c4F)C(=O)O)cccc23)c1=O | – | – | IC50 (α4β1 integrin [4]): > 1000 nM |
| Cn1c(=O)c(-c2cccc3c(C[C@H](NC(=O)c4c(F)cc5c(cnn5CC(F)(F)F)c4F)C(=O)O)cccc23)c(C(F)(F)F)c2ccccc21 | – | – | IC50 (α4β7 integrin [3]): 10 to 100 nM; IC50 (α4β1 integrin [1]; read-out: Mean IC50 α4β1 KO^b, RPMI-8866 cells with stable LOF mutation of the ITGB7 gene): > 1000 nM |
